Reference: ChEMBL document CHEMBL3286329, “Diamine Derivatives as Novel Small-Molecule, Potent, and Subtype-Selective Somatostatin SST3 Receptor Agonists” (ACS Med Chem Lett, 2014)

The chains behind the UniProt entries cited, without tags or fusion partners.
UniProt P32745, whole entry: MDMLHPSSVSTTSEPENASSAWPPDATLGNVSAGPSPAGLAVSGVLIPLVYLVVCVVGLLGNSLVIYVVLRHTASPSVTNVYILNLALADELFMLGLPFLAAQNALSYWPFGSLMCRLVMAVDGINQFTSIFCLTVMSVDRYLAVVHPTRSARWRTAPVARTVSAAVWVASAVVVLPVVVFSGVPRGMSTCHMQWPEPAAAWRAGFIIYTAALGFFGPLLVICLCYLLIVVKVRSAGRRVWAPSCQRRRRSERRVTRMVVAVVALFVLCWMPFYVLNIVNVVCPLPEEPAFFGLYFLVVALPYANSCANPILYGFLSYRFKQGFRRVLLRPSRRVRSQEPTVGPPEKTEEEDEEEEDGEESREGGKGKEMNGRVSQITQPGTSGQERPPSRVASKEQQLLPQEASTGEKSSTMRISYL

Target: Somatostatin receptor type 3 (Homo sapiens, UniProt P32745)
Test: Agonist activity at human SST3 expressed in CHO-K1 cells assessed as activation of […]-stimulated cAMP accumulation at 2 uM after 45 mins by TR-FRET assay
Type: functional, cell-based

CC(C)(C)CCN[C@H]1CCCC[C@H]1NC(=O)c1ccc(F)cc1
Activity: 98%
